The series can be described thus: Aerosol purity of condensation aerosol vaporized from drug-coated substrate in substrate screening apparatus (HPLC of filter extract). In kind it is physicochemical. From the text: The substrate screening apparatus 400 is made of a machined plastic (polyoxymethylene, DELRIN® Acetal Resin, DuPont, Wilmington, DE) block 402 with a 2 cm^2 cross-sectional area for mounting a substrate 412. Block 402 includes a first airway 404 extending from first inlet 414 to outlet 422. Block 402 also include a second airway 406 extending from second inlet 416 to substrate 412, where it typically joins the first airway. The substrate 412 is mounted in the substrate screening apparatus 400 across two electrodes 420. A first air flow 414 is established in first airway 404 and a second air flow 416 is established in second airway 406 such that the second air flow 416 passes from the second airway 406 to first airway 404 through holes in the substrate 412. While providing air flows 414 and 416, the substrate 412 is heated, typically by discharging a capacitor (not shown) across the substrate 412. In a one embodiment, the flow of air passing through holes in the substrate 412 is in a direction orthogonal to that of air flow 414. Substrate 412 is coated with a drug composition film. The substrate 412 is heated to vaporized all or a portion of the drug composition. The vaporized drug subsequently cools and condenses to form a condensation aerosol that is carried to the outlet by air flow 414, joined by air flow 416). Accordingly, the condensation aerosol is emitted from the outlet 422.
The test substrates were then coated with a drug composition. The drug was typically dissolved in a volatile organic solvent (e.g., dichloromethane/methanol mixture or acetone or other suitable organic solvent) and then spray-coated onto the test substrates using an automated spray coater. Coating parameters, such as the drug concentration in the coating solution, solution flow rate, were selected to obtain a uniform drug coating of the desired coating density (i.e., mass/area).
Total air flow through the substrate screening apparatus was set by providing air flows 414 and 416 at a desired ratio. […]

Take `CCN(C(C)=O)c1cccc(-c2ccnc3c(C#N)cnn23)c1`: under “all four test conditions: perforated polyimide film 3:1 and non-perforated heat-passivated stainless steel, 380° C. and 420° C.”, the aerosol purity is more than 99.4%.

On to tizanadine, for which the aerosol purity (perforated polyimide film, across:bottom 3:1 and 1:3, 350° C.) is more than 98%.

Take paroxetine fumarate: the aerosol purity result (non-perforated heat-passivated 304 stainless steel, 320° C. and 400° C., 100% air flow across) is on record as “poor”.

These data come from US12138383B2, “Heating unit for use in a drug delivery device” (ALEXZA PHARMACEUTICALS, INC., priority 2007, dated 2024).
